Literature values as cited in patent publication US12172965B2, “Drug conjugate comprising quinoline derivatives” (UNIVERSITE PARIS-SACLAY, priority 2018, dated 2024).

Tested on: cell line SKBR3
Conditions: prior-art ADC, PCT/EP2018/058168; cited from earlier work

Trastuzumab-VC-PAB-ICQO-I
IC50 against the cell line SKBR3: 27 µg/mL
